Here are results for one molecule from ChEMBL document CHEMBL1800036, “A novel HDAC inhibitor with a hydroxy-pyrimidine scaffold” (Bioorg Med Chem Lett, 2011).

By UniProt entry, the sequences of proteins in these tests, tags left out. Where a name states a change or a piece, a line headed by the entry shows the natural chain unless it says otherwise.
UniProt O15379: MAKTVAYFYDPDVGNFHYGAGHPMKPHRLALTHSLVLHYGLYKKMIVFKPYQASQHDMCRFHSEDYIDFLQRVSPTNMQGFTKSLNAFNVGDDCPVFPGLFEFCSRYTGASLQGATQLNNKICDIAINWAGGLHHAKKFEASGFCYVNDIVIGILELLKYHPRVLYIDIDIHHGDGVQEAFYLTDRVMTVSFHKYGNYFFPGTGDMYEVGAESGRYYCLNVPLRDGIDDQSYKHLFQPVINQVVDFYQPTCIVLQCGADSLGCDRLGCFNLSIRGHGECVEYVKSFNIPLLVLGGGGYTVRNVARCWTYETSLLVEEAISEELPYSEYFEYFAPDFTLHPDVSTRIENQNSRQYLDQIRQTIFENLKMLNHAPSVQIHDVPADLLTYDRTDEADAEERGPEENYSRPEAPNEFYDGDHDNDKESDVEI
UniProt Q92769, whole entry: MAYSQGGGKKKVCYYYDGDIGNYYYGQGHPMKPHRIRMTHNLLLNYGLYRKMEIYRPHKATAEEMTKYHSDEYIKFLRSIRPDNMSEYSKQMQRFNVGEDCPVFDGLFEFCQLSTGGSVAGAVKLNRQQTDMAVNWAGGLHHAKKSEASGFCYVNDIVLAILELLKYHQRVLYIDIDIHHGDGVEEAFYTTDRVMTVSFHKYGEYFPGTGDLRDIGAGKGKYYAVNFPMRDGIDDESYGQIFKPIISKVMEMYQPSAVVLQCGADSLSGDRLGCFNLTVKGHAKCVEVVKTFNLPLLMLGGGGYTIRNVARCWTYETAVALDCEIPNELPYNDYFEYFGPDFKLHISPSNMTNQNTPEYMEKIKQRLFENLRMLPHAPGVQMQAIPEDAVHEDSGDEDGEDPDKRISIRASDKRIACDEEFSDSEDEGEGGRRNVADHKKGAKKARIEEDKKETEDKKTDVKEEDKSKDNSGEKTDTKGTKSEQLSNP
UniProt P56524: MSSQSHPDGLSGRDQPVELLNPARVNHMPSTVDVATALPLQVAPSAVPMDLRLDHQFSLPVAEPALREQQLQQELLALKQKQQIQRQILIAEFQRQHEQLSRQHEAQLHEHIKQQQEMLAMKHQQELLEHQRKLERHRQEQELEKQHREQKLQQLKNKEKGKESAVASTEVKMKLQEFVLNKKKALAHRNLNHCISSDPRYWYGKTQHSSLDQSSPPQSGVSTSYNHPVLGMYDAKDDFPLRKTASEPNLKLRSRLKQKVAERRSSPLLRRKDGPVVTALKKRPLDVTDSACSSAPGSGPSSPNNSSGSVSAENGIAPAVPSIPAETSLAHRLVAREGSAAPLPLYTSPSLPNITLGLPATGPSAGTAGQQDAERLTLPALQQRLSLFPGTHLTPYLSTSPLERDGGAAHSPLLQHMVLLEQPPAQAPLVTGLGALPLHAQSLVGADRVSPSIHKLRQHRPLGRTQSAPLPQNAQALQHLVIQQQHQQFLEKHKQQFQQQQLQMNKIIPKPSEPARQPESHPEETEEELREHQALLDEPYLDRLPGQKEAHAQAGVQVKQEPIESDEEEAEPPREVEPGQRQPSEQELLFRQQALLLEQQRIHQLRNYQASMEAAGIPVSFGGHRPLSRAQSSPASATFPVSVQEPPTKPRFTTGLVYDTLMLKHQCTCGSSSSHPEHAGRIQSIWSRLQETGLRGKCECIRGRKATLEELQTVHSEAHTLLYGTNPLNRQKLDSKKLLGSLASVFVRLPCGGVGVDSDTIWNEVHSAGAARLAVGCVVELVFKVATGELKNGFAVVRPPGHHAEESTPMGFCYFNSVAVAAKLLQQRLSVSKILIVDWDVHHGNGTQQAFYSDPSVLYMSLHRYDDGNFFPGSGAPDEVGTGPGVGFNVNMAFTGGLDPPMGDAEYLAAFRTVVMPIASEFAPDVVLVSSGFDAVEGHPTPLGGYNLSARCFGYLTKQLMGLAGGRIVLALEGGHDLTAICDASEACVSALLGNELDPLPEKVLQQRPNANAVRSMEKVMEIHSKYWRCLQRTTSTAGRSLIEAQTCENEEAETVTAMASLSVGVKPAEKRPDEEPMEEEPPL
UniProt Q13547, whole entry: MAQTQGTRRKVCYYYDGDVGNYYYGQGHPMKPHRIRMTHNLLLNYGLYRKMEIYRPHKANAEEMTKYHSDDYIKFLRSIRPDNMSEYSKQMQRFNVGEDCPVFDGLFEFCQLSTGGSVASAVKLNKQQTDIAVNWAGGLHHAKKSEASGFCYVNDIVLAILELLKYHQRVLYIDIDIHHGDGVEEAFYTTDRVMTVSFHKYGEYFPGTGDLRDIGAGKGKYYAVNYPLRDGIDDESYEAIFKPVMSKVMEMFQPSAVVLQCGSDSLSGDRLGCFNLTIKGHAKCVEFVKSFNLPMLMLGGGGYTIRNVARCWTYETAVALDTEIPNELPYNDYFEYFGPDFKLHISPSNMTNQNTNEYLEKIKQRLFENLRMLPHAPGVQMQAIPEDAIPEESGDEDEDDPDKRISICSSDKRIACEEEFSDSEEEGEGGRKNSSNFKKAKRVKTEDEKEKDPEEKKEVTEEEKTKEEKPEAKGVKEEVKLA
UniProt Q9UQL6: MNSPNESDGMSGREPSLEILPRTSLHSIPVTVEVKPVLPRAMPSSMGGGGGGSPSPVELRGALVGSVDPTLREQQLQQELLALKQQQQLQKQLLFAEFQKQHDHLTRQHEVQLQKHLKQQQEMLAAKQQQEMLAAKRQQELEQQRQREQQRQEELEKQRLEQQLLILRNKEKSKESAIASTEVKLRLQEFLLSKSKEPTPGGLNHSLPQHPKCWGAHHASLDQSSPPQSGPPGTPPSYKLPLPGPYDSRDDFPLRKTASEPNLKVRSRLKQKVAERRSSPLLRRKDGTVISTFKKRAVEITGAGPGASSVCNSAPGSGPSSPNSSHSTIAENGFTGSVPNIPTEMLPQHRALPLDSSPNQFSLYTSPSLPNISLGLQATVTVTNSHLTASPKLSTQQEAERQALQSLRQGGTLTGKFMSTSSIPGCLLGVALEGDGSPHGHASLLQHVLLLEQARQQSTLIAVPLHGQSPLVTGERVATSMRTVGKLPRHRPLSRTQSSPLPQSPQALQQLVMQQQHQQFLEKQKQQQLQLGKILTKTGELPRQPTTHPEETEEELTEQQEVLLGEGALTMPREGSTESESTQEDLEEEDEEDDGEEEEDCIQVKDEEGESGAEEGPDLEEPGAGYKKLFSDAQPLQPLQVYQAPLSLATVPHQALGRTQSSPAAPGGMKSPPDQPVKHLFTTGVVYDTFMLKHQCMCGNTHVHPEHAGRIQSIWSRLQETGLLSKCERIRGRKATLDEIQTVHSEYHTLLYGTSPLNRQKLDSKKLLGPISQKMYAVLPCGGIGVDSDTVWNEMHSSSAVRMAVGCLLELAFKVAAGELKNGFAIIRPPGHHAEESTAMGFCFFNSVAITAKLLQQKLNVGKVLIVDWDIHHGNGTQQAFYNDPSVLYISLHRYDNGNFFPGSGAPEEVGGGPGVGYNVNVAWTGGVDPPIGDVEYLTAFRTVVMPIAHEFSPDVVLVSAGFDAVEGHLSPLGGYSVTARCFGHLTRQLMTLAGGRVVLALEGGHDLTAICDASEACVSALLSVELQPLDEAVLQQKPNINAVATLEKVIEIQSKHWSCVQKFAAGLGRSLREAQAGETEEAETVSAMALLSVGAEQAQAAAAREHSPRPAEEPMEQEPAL
UniProt Q9UKV0: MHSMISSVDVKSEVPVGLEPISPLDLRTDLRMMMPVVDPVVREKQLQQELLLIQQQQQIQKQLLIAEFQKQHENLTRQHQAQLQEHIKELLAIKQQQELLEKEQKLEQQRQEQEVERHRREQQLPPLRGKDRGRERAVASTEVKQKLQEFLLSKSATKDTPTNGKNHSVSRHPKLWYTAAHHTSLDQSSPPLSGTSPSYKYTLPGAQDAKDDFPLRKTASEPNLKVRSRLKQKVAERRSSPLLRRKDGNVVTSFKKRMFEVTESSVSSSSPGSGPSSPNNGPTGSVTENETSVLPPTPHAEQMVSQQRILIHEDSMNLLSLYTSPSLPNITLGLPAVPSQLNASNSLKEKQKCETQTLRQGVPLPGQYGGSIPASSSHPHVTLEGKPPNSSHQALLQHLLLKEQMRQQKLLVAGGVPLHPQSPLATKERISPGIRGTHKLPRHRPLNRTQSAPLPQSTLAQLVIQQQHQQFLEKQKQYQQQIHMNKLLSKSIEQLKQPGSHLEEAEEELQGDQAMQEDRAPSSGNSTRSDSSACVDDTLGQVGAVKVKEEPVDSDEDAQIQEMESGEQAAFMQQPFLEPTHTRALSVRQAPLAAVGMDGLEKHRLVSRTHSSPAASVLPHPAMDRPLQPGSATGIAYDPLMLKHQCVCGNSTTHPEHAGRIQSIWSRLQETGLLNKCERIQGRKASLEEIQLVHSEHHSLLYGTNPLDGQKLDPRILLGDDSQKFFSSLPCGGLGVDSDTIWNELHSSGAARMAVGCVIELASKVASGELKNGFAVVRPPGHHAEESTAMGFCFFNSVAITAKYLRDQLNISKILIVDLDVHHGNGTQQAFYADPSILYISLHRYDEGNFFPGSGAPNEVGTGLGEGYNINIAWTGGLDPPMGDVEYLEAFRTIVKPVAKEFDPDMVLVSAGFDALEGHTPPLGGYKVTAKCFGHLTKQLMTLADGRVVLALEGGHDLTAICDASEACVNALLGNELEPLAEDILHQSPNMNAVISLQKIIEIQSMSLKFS

Some results are limits rather than exact numbers.

One experiment concerns the target Histone deacetylase 3 (Homo sapiens, UniProt O15379). Kind of experiment: Inhibition of recombinant HDAC3 assessed as inhibition of fluorogenic aminocoumarin release from substrate by trypsin-coupled biochemical assay. An outline of the steps:
(§1)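 Trypsin-coupled fluorogenic assay. Substrate is an acetylated lysine tripeptide amide-linked to aminocoumarin (AMC). HDAC deacetylation allows trypsin to release AMC, and the fluorescence increase is read. Compound was tested at various concentrations and normalized to a DMSO control. IC50 was derived by non-linear regression fit.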

A further experiment addresses T1, Histone deacetylase 8 (Homo sapiens, UniProt Q9BY41).
T1 sequence (Q9BY41 whole entry): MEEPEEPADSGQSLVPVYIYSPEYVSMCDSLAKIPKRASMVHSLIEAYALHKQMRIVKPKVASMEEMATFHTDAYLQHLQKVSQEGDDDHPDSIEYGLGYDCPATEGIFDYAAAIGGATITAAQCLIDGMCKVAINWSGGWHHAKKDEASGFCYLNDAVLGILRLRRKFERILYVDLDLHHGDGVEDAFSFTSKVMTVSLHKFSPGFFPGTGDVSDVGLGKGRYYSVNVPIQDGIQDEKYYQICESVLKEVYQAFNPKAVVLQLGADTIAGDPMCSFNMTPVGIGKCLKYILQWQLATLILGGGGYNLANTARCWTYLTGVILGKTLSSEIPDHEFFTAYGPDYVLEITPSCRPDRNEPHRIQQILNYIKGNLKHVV
The experiment is described as follows: Inhibition of recombinant HDAC8 assessed as inhibition of fluorogenic aminocoumarin release from substrate by trypsin-coupled biochemical assay. An outline of the steps:
as §1

A further experiment deals with T2, Histone deacetylase 7 (Homo sapiens, UniProt Q8WUI4).
T2 sequence (Q8WUI4 whole entry): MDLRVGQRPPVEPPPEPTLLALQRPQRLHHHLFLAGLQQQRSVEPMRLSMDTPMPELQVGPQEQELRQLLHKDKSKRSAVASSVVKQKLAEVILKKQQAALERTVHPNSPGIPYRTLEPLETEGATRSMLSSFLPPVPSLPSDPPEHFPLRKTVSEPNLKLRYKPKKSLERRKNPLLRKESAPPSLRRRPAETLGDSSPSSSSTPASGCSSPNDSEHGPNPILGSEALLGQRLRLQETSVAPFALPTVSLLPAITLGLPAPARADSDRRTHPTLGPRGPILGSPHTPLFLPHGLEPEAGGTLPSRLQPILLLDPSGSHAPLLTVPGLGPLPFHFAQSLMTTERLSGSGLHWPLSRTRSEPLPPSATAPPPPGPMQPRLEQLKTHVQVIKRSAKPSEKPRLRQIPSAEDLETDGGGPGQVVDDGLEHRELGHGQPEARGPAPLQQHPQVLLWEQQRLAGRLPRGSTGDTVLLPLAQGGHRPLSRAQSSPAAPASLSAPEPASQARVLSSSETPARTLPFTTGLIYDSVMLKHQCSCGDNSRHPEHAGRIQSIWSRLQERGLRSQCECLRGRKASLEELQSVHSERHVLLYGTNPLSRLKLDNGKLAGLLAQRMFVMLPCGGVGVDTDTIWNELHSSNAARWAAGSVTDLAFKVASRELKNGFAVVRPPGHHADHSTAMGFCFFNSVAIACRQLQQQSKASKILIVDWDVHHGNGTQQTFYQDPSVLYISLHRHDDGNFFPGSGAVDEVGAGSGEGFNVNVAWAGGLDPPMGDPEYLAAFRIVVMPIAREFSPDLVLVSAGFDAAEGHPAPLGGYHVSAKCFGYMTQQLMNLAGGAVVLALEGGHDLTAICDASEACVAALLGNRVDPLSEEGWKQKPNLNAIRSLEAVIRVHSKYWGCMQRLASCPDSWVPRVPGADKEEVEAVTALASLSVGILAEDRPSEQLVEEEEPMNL
The experiment is described as follows: Inhibition of recombinant HDAC7 assessed as inhibition of fluorogenic aminocoumarin release from substrate by trypsin-coupled biochemical assay.

For another experiment, the target named is Histone deacetylase 2 (Homo sapiens, UniProt Q92769). Kind of experiment: Inhibition of recombinant HDAC2 assessed as inhibition of fluorogenic aminocoumarin release from substrate by trypsin-coupled biochemical assay.
A further experiment deals with Histone deacetylase 4 (Homo sapiens, UniProt P56524). Kind of experiment: Inhibition of recombinant HDAC4 assessed as inhibition of fluorogenic aminocoumarin release from substrate by trypsin-coupled biochemical assay. The procedure, abridged:
as §1

The next experiment has as its target Histone deacetylase 1 (Homo sapiens, UniProt Q13547). Kind of experiment: Inhibition of recombinant HDAC1 assessed as inhibition of fluorogenic aminocoumarin release from substrate by trypsin-coupled biochemical assay. The procedure, abridged:
as §1

In another experiment the target is Histone deacetylase 5 (Homo sapiens, UniProt Q9UQL6). The experiment is described as follows: Inhibition of recombinant HDAC5 assessed as inhibition of fluorogenic aminocoumarin release from substrate by trypsin-coupled biochemical assay. The procedure, abridged: as §1
For experiment [1], the target named is T3, Protein deacetylase HDAC6 (Homo sapiens, UniProt Q9UBN7).
T3 sequence (Q9UBN7 whole entry): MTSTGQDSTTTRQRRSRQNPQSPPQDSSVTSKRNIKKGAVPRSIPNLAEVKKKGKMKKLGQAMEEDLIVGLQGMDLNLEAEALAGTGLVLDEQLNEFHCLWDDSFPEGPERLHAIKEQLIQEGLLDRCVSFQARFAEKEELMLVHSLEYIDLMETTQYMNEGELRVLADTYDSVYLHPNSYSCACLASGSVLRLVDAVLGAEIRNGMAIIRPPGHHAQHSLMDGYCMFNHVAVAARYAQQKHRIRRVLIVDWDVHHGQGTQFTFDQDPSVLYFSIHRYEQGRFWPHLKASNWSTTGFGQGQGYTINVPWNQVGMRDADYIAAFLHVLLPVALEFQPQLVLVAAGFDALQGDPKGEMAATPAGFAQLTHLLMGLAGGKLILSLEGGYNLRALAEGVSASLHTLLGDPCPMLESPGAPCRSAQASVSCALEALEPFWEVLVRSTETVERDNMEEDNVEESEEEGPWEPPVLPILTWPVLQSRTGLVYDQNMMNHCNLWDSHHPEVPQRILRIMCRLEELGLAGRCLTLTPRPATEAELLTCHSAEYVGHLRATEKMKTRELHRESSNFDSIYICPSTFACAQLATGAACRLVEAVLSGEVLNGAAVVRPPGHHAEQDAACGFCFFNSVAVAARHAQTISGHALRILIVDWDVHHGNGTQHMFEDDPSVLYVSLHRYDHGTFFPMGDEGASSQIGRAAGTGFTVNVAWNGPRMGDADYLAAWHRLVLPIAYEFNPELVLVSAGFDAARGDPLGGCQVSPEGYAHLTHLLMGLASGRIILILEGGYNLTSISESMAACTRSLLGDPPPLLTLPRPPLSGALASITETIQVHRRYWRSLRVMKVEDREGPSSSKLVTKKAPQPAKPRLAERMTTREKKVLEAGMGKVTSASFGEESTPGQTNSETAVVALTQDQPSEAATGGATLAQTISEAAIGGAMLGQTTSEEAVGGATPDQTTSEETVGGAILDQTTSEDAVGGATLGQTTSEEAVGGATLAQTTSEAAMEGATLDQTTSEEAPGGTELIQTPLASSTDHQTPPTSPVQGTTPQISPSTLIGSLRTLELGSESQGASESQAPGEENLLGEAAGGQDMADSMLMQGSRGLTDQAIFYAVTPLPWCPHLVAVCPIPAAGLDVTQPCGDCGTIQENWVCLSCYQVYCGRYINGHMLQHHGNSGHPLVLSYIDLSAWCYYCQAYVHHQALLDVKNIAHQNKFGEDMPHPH
The experiment is described as follows: Inhibition of recombinant HDAC6 assessed as inhibition of fluorogenic aminocoumarin release from substrate by trypsin-coupled biochemical assay. The procedure, abridged: as §1

The target of the next experiment is Histone deacetylase 9 (Homo sapiens, UniProt Q9UKV0). Kind of experiment: Inhibition of recombinant HDAC9 assessed as inhibition of fluorogenic aminocoumarin release from substrate by trypsin-coupled biochemical assay. An outline of the steps: as §1

The term IC50 denotes the point on the concentration scale where inhibition reaches its midpoint. For `Cc1cc(O)nc(SCC(=O)c2ccc3c(c2)NC(=O)C3)n1`, the IC50 on Histone deacetylase 3, at Histone deacetylase 8, at Histone deacetylase 7, on Histone deacetylase 2, on Histone deacetylase 4 and on Histone deacetylase 1 was over 100 µM in each case. Further, the IC50 is over 100 µM on Histone deacetylase 5, 32.6 µM in experiment [1] and over 100 µM at Histone deacetylase 9.
